The test system of the assay is COS-7 cells. Nature of the assay: Endocytosis of Tac chimeric proteins expressed in COS-7 cells, fluorescence microscopy. To be noted: COS-7, 4° C. to 37° C. In kind it is cell-based. The procedure: Each of plasmid DNAs encoding Tac chimeric proteins illustrated in FIG. 2 was expressed in COS-7 cell line to induce endocytosis. To quantify endocytosis percentage, the following method was used. First, plasmid DNA was transfected into COS-7 cell line, and next day, cells were suspended in DMED supplemented with 10% FBS, and seeded onto an 8-well slide glass (Thermo, 154534) to 50% confluency. Next day, to block endocytosis, cells were transferred at 4° C. and left for 30 minutes. Anti-Tac (BD BIOSCIENCES, 347640) antibody was diluted in DMEM supplemented with 10% FBS at a ratio of 1:10, and treated at 4° C. for 30 minutes. The cells were washed with medium three times. […] Next day, the sample was examined by fluorescence microscopy (Olympus IX2-UCB). […] To quantify endocytosis of Tac chimeric proteins expressed in COS-7 cells over time, the following Equation was used. […] As such, green fluorescence intensity indicates the amount of cell surface Tac, and red fluorescence intensity signifies those of endocytosed Tac plus partial cell surface Tac. […] Partially detected surface Tac by anti-mouse IgG-ALEXA FLUOR 568 was measured by comparing fluorescence intensity between green and red at 0 min in which no endocytosis occurred. Red fluorescence intensity was 0.429-fold or green fluorescence intensity at 0 min, which was defined as α. […]

B1: Tac ECD: extracellular domain of Tac (CD25) protein; itself does not induce endocytosis (protein, UniProt P01589 22-240, looked up)
extracellular domain: ELCDDDPPEIPHATFKAMAYKEGTMLNCECKRGFRRIKSGSLYMLCTGNSSHSSWDNQCQCTSSATRNTTKQVTPQPEEQKERKTTEMQSPMQPVDQASLPGHCREPPPWENEATERIYHFVVGQMVYYQCVQGYRALHRGPAESVCKMTHGKTRWTQPQLICTGEMETSQFPGEEKPQASPEGRPESETSCLVTTTDFQIQTEMAATMETSIFTTEYQ
modifications: extracellular domain
For the molecule B1, the “endocytosis of the chimeric protein” value is given as “not observed”.

The values above are taken from patent US9617304B2, “Pharmaceutical composition containing an endocytic motif and protein transduction domains for preventing or treating cancer” (Korea Research Institute Of Bioscience And Biotechnology, priority 2011, dated 2017).
